In US20080167544A1, “Compositions And Methods For Locating An Internal Bleeding Site” (Cold Spring Diagnostics, Inc., priority 2006, published 2008):

What was measured:
[1] = tested on: site of thrombus formation (mesenteric vessel); test: Real-time intraoperative thrombus detection with NIR fluorescence, mesenteric vessel injury in mice; assay type: in vivo, CD-1 mice; settings: injected i.v. 30 minutes after mesenteric vessel injury
Experimental: (§1) Animals were housed in an AAALAC-certified facility and were studied under the supervision of an approved institutional protocol. CD-1 mice weighing 30 g were from Charles River Laboratories (Wilmington, Mass.). Adult New Zealand White rabbits weighing 3 kg were from Robinson Services (Mocksville, N.C.). Yorkshire pigs weighing 30 kg were from E.M. Parsons and Sons (Hadley, Mass.). All animals acclimated to the animal facility for at least 48 hours before experimentation and were euthanized after experimentation with the use of pentobarbital (mice) or rapid intravenous injection of Fatal-Plus (Vortech Pharmaceuticals, Dearborn, Mich.; rabbits and pigs).
(§2) Anesthesia was induced with an intraperitoneal injection of pentobarbital (40 mg/kg) to mice and an intramuscular injection of ketamine (35 mg/kg) and xylazine (5 mg/kg) to rabbits. […]
(§3) The intraoperative NIR fluorescence imaging system optimized for animal surgery has been described previously in detail.^12 Briefly, it is composed of 2 wavelength-isolated excitation sources, one generating 0.5 mW/cm^2 of 400- to 700-nm “white” light and the other generating 5 mW/cm^2 of 725- to 775-nm light over a 15-cm diameter field of view. Simultaneous photon collection of color video and NIR fluorescence images is achieved with custom-designed optics that maintains separation of the white light and NIR fluorescence (>795 nm) channels. […]

sites of clot formation = test: Real-time intraoperative thrombus detection with NIR fluorescence, mesenteric vessel injury and mucosal resection of the stomach in pigs; assay type: in vivo, Yorkshire pigs; settings: 30-kg pigs; injected i.v. 30 minutes after injuries
Experimental: as §1, §2, §3

[2] = tested on: sites of injury (active clot) in the stomach; test: Thrombus detection with ^125I-FBG in rabbits (gastrotomy and mucosal injury, scintillation counting, Geiger counter); assay type: in vivo, New Zealand White rabbits; settings: 15 μCi/kg i.v.
Experimental: as §1
Anesthesia was induced with an intraperitoneal injection of pentobarbital (40 mg/kg) to mice and an intramuscular injection of ketamine (35 mg/kg) and xylazine (5 mg/kg) to rabbits. Pig anesthesia was induced with 4.4 mg/kg intramuscular Telazol (Fort Dodge Labs, Fort Dodge, Iowa), and anesthesia was maintained through a 7-mm endotracheal tube with 1.5% isoflurane/98.5% O2 at 5 L/min. After anesthesia, a laparotomy was made in the midline; the stomach and a loop of small intestine were externalized. A mesenteric vessel of the mice and pigs was lacerated and then permitted to clot, resulting in intramesenteric thrombus formation. For rabbits and pigs, a gastrotomy was made, and the posterior wall mucosa was pulled through. A 5-mm mucosectomy was performed with a scalpel. The injured area was allowed to clot and marked with a 4-0 silk suture for identification.
1.7 mg/kg FBG800 protein (10 nmol/kg of fluorophore) was injected intravenously in mice (N=4) and pigs (N=3). 15 μCi/kg was injected intravenously in rabbits (N=3). This dose is approximately 100 ng and is much less than the total fibrinogen in the rabbit. Injections occurred 30 minutes before or 30 minutes after injury as described below. For controls, the same dose of CW800-labeled human serum albumin (HSA800, N=3)^16 or radiolabeled albumin (^125I-HSA, N=3) was used.
After injection of FBG800, signal to background ratio (SBR) was measured by using as background the signal from an identically sized and shaped region of interest over adjacent mesenteric vessels or GI mucosa. After injection of ^125I-FBG, a standard Geiger counter was swept over the areas of injury to determine whether the site of injury could be recognized simply on the basis of meter readings. The entire stomach was then removed and opened. A portion of stomach away from both the gastrotomy site and the site area of mucosal injury was resected and used for background measurements. Next, the gastrotomy site was resected. Finally, the area of mucosal injury was recognized and resected. All tissues were weighed, placed in scintillation vials, and counted in a standard scintillation counter. […]

[3] = rabbits injected 30 minutes after gastrotomy
[4] = rabbits injected 30 minutes before gastrotomy, counted 3 hours after the injury

With “HSA800: CW800-labeled human serum albumin, control protein” the “Accumulation at the site of thrombus formation” value [1] was “no accumulation” and the “Accumulation at the sites of clot formation / injury” value (sites of clot formation) was “no accumulation”.

“^125I-HSA: ^125I radiolabeled human serum albumin, control, purchased from Amersham Biosciences” was tested, and the “Ratio of the counts at the site of (mucosal) injury as compared to uninjured mucosa” value [2, 3] was 1.2±0.1, the “Ratio of the counts at the site of the gastrotomy as compared to uninjured mucosa” value [2, 3] was 1.0±0.4 and the “Ratio of the counts at the site of (mucosal) injury as compared to uninjured mucosa” value [2, 4] was 1.7±1.0. The “Ratio of the counts at the site of the gastrotomy as compared to uninjured mucosa” value [2, 4] was 1.0±0.7.
